{
  "sequences": {"note": "The chains behind the UniProt entries cited, without tags or fusion partners.", "UniProt P21447, whole entry": "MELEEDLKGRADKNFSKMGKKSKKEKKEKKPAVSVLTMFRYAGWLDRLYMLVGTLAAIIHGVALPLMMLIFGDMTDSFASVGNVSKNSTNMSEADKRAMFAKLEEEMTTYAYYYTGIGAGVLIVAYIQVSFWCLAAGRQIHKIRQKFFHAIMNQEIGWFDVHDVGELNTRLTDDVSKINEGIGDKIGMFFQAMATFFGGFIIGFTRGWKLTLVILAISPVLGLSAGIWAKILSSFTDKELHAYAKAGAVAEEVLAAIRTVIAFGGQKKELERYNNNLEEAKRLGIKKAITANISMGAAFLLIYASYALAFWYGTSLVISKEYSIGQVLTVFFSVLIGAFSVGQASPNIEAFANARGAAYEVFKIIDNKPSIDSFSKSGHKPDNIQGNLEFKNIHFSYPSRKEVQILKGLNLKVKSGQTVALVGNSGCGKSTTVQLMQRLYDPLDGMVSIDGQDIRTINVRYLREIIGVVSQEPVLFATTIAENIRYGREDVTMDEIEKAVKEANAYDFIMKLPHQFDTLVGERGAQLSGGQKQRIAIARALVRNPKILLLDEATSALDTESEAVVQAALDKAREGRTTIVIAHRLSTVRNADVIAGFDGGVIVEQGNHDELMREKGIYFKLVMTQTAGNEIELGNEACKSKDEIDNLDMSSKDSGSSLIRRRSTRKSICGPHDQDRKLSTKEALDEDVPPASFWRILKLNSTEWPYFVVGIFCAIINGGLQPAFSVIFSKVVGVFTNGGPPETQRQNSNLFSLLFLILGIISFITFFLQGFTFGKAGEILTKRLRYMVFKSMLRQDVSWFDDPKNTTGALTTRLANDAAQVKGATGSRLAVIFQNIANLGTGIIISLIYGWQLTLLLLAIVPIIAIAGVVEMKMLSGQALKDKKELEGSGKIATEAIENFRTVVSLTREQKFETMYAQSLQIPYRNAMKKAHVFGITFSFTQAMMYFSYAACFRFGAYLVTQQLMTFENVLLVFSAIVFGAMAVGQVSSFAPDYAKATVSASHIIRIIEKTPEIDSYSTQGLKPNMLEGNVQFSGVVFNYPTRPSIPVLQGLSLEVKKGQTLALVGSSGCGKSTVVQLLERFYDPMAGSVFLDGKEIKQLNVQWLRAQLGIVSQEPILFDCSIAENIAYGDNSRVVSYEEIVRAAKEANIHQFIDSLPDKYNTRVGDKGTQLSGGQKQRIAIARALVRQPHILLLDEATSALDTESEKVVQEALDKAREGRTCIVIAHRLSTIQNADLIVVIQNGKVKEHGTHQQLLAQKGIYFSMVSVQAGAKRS"},
  "source": "ChEMBL document CHEMBL1132759",
  "about": "“The flavanolignan silybin and its hemisynthetic derivatives, a novel series of potential modulators of P-glycoprotein” (Bioorg Med Chem Lett, 2000)",
  "biological_target": "ATP-dependent translocase ABCB1 (Mus musculus, UniProt P21447)",
  "assay": "Compound was tested for the binding affinity towards recombinant NBD2 C-terminal cytosolic nucleotide-binding domain of mouse P-Glycoprotein",
  "data": [
    {"smiles": "COc1cc(C2Oc3cc(-c4oc5cc(O)cc(O)c5c(=O)c4O)ccc3OC2CO)ccc1O", "note": "(stereo unspecified) [DEHYDROSILYLBIN]", "values": [
      {"measurement": "Kd", "value": 2.2, "unit": "µM"}
    ]}
  ]
}
